Measurements reported in article PMC4357715, “The beta hairpin structure within ribosomal protein S5 mediates interplay between domains II and IV and regulates HCV IRES function” (Nucleic Acids Research, 2015).
Entries after “also recorded” stand apart in the source; their conditions may differ.

Experiments:
HCV IRES and RPS5 = test: Competition UV cross-linking of HCV IRES and rRPS5 in presence of S5 derived peptides; format: binding; details: 100 fmol 32P-labelled HCV IRES, 4 pmol rRPS5; 100- and 200-fold molar excess of peptide
Experimental: UV cross-linking assay was performed as reported earlier ([17]). In UV cross linking assay α-^32P-labelled HCV IRES RNA (18–383) or HCV 3′ UTR was allowed to form complex with the purified recombinant ribosomal protein S5 (rRPS5) or purified 40S ribosome subunit in binding buffer (5 mM HEPES pH 7.6, 25 mM KCl, 2 mM MgCl2, 3.8% glycerol, 2 mM dithiothreitol, 0.1 mM EDTA) at 30°C for 15 min. These RNA–protein complexes were then irradiated with UV light (254 nm) for 25 min on ice. The excess RNA was digested with RNase A (Sigma) for 30 min at 37°C and UV cross-linked complex was resolved on SDS-polyacrylamide gel, which was dried before it was exposed to the phosphor-Imager cassette. In case of competition UV cross-linking experiments, RNA–protein complex formation was performed in presence of the un-labelled RNAs or peptides.
(§1) Figure 1. Characterization of the region of RPS5 involved in HCV IRES–RPS5 interaction. (A) Model depicting the interaction of RPS5 with the domains of IRES. […] Apparent Kd values were calculated using nonlinear regression applied by Graphpad Prism 6. […]
(§2) Next, we aimed to validate the results obtained by computational modelling through other experimental approaches. […] The dissociation constant Kd was determined using GraphPad Prism 6 software. […]

HCV IRES = test: Filter binding assay of peptides with 32P-labelled HCV IRES; design: species or system Hepatitis C Virus; details: 30°C; for interaction with the HCV IRES: % RNA retained, 25 fmol 32P-labelled HCV IRES, increasing peptide concentration, three independent experiments
Experimental: (§3) Filter binding assay was performed as described earlier ([17]). The α-^32P-labelled HCV 18–383 RNA was incubated with increasing concentrations of peptides at 30°C for 15 min in RNA binding buffer (5 mM 4-(2-hydroxyethyl)-1-piperazineethanesulfonic acid (HEPES), pH 7.6, 25 mMKCl, 2 mM MgCl2, 3.8% glycerol, 2 mM dithiothreitol and 0.1 mM ethylenediaminetetraacetic acid (EDTA)), and loaded onto nitrocellulose filters. The filters were then washed twice with 1 ml of ice-cold 1× binding buffer and once with absolute ethanol dried. The counts retained on the membranes were measured with a liquid scintillation counter. Kd values were calculated using nonlinear regression applied by GraphPad Prism 6. Each experiment was repeated three times.
Figure 1. Characterization of the region of RPS5 involved in HCV IRES–RPS5 interaction. (A) Model depicting the interaction of RPS5 with the domains of IRES. The amino acid residues of RPS5 involved in the interaction are indicated in yellow, the RPS5 protein in blue, the domain II in red and the SLIV in brown. (B) Model depicting interaction of RPS5 with the domains of IRES with the nucleotides involved in interaction indicated in yellow. (C) Schematic representation of peptides derived from RNA binding region of RPS5. (D) Filter binding analysis of the interaction between HCV IRES and peptides derived from RNA binding region of RPS5 protein (S5M1 and S5C2) and a non-specific peptide (NSPS5). The indicated peptides were incubated with 25fmol of ^32P body labelled HCV IRES at 30°C before applying it on nitrocellulose membrane. Percentage of RNA retained on the nitrocellulose membrane was plotted against peptide concentration. Average of three independent experiments was used to plot the graph. Apparent Kd values were calculated using nonlinear regression applied by Graphpad Prism 6. […]
as §2

[1] = test system: non-specific RNA (NSP RNA); test: Filter binding assay of S5M1 with non-specific RNA; details: average of three independent experiments
Experimental: as §3
as §1, with “IRES. The amino acid residues of RPS5 involved in the interaction are indicated in yellow, the RPS5 protein in blue, the domain II in red and the SLIV in brown.” for “IRES.”
as §2

Row | Substance | competition with rRPS5 for binding with HCV IRES (HCV IRES and RPS5) | interaction with the HCV IRES (HCV IRES) | interaction with non-specific RNA (NSP RNA) [1] | Kd (HCV IRES; nitrocellulose, 25 fmol 32P-labelled HCV 18–383 RNA, 15 min, RNA binding buffer 5 mM HEPES pH 7.6, 25 mM KCl, nonlinear regression GraphPad Prism 6, average of three independent experiments, read-out: apparent dissociation constant Kd) [µM]
1 | S5C2: synthetic 26aa peptide (N179-R204) derived from the C-terminal end of RPS5 | could not interfere with IRES-RPS5 | did not show any appreciable interaction with the HCV IRES; also recorded: did not show significant interaction with IRES |  | 
2 | S5M1: synthetic 26aa peptide (P121-R146) from RPS5; amino acids forming a beta hairpin structure | competed with full-length rRPS5 for binding with the HCV IRES | specific interaction with the HCV IRES; also recorded: interacted specifically with HCV IRES | not with a non-specific RNA (NSP RNA) | 5.6 ± 0.67
